Data on 61 compounds can be found in PubChem BioAssay AID1510 (The Scripps Research Institute Molecular Screening Center, 2009).

Sequences of proteins named here, by UniProt entry; tags and fusion partners are left off. A change or cut given only in a name is not applied to a line headed by its entry.
UniProt O95977: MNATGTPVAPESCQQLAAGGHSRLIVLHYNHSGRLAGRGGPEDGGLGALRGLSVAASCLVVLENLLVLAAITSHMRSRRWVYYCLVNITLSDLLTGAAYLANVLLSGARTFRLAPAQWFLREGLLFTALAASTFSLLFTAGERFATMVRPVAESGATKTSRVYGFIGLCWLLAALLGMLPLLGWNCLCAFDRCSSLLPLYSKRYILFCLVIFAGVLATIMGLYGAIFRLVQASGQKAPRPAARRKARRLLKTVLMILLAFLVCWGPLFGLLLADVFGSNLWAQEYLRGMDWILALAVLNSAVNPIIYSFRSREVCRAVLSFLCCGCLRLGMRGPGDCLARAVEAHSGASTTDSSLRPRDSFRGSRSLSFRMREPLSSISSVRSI

“And” between values parts separate entries of the source, which are not always exact repeats. Equal values may be shown once. This is a selection; strong and weak results do not stand in their true shares. The source made the active and inactive calls. No stated cut-off is given here; in the data, active means inhibition above about 29%; inactive means the rest.

What is called inhibition is the drop in the measured response relative to a control, in per cent.

In the assay the target is Sphingosine 1-phosphate receptor 4 (Homo sapiens) (UniProt O95977). Description: S1P4 receptor antagonists, primary screen, cell-based (AID 1510).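 Further: 0% = wells stimulated with agonist and 100% = vehicle wells without agonist.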 The settings on record: S1P4-expressing cells, antagonist mode, reporter read-out; at 4.98 µM; active compounds read high.
As to `c1nnnn1CCn1cnnn1`, the inhibition is inactive: -5.14%. Turning to `O=P(Nc1ccccn1)(c1ccc(Br)cc1)c1ccc(Br)cc1`, the inhibition is inactive: -2.92%. For `O=P(Nc1nc2ccccc2s1)(c1ccccc1)c1ccccc1`, the inhibition is inactive: -6.01%.

As for `O=[As](O)(c1ccccc1)c1ccc(O)cc1`, the inhibition is inactive: 2.18%.

Turning to `O=[N+]([O-])c1ncn(CCn2cnc([N+](=O)[O-])n2)n1`, the inhibition was inactive: -15.4%. In the case of `CC(=O)NC(SC(=S)N(C)C)C(Cl)(Cl)Cl` (stereo unspecified), the inhibition was inactive: 8.56%. To `O=C(OC1CN2CCC1CC2)c1cccc(Cl)c1` (stereo unspecified) belongs inactive: 2.3%; to `C(Cc1nn[nH]n1)Cc1nn[nH]n1`, inactive: -1.33%; to `Nc1ccc([As](=O)(O)c2ccc([N+](=O)[O-])cc2)cc1`, inactive: 0.15%. The figure for `CCOC(=O)NC(Sc1ccccc1)C(Cl)(Cl)Cl` (stereo unspecified) is inactive: 5.37%; for `Cc1ccc(NP(=O)(Oc2cccc(C)c2)Oc2cccc(C)c2)nc1` it is inactive: 0.67%. Take `c1ccc(-c2nn[nH]n2)c(-c2nn[nH]n2)c1`: the inhibition is inactive: -4.56%.

For `CCNC(=S)/N=C(\N)N[N+](=O)[O-]`, the inhibition was inactive: 6.74%. The figure for `O=C(NC1CCS(=O)(=O)C1)NP(=S)(Oc1ccccc1)Oc1ccccc1` (stereo unspecified) is inactive: 2.62%; for `CCC(=O)N1C2C3N(C(=O)CC)C1C1N(C(=O)CC)C(C(N1C(=O)CC)N3C(=O)CC)N2C(=O)CC` it is inactive: -9.81%. `Cc1ccc(OP(=O)(Nc2ccccn2)Oc2ccc(C)cc2)cc1`: the inhibition was inactive: -10.5%. In the case of `CC(=O)NC(SC(=S)N(CC(C)C)CC(C)C)C(Cl)(Cl)Cl` (stereo unspecified), the inhibition was inactive: 7.56%.

Take `COC(=O)c1cc2c(s1)N=C(c1ccccc1)N(C)P2(=O)N1CCOCC1` (stereo unspecified): the inhibition is inactive: 10.5%. To `O=c1c2cc([N+](=O)[O-])ccc2[nH]c2c([N+](=O)[O-])cc([N+](=O)[O-])cc12` belongs inactive: -3.81%; to `CN(C)C(=O)Oc1noc2ccccc12`, inactive: 14.2%.

As to `Cc1ccccc1OP(=O)(Nc1ccccn1)Oc1ccccc1C`, the inhibition was inactive: 5.08%. To `CCOc1ccc(C2=NCC(CBr)S2)cc1` (stereo unspecified) belongs inactive: -8.74%; to `O=P1(Nc2nc3ccc(Cl)cc3s2)COc2ccccc2O1` (stereo unspecified), inactive: -4.89%; to `CC(C)(C)C(=O)NC(Sc1ccccc1)C(Cl)(Cl)Cl` (stereo unspecified), inactive: -8.69%.

Take `CC(=O)Nc1ccc(Oc2c([N+](=O)[O-])cc([N+](=O)[O-])cc2[N+](=O)[O-])cc1`: the inhibition was inactive: -7.41%.

With `CC(=O)Nc1ccc([As](=O)(O)O)c(O)c1`, the inhibition is inactive: 5.67%.

`Cc1ccc(N/C(=N/P(=O)(N2CCOCC2)N2CCOCC2)N2CCOCC2)cc1`: the inhibition was inactive: -13.3%. As for `NC(=O)c1cc([N+](=O)[O-])cc([N+](=O)[O-])c1N`, the inhibition is inactive: -5.92%. Consider `CN1CCCC(OC(=O)C(c2ccccc2)c2ccccc2)C1` (stereo unspecified), for which the inhibition is inactive: -6.64%.

Regarding `Clc1ccc(Cl)c(NC2=NCC(CBr)S2)c1` (stereo unspecified), the inhibition was inactive: 2.5%.

On to `Cc1ccc(OP(=O)(Nc2nccs2)Oc2ccc(C)cc2)cc1`, for which the inhibition was inactive: -0.07%.

On to `COc1ccccc1OP(=O)(Nc1ccc(C)cn1)Oc1ccccc1OC`, for which the inhibition was inactive: -8.77%. The figure for `O=C(NC(Sc1ccncn1)C(Cl)(Cl)Cl)c1ccccc1` (stereo unspecified) is inactive: 0.46%; for `Oc1ccccc1CNc1ccccn1` it is inactive: 5.87%; for `Nc1cc(N)c2nonc2c1[N+](=O)[O-]` it is inactive: -10.3%. The figure for `CC(C)CC(=O)NC(Sc1ccc(Cl)cc1)C(Cl)(Cl)Cl` (stereo unspecified) is inactive: -9.26%; for `O=P(Nc1nc2ccc(Cl)cc2s1)(c1ccccc1)c1ccccc1` it is inactive: -6.18%; for `CC(=O)Nc1ccc([As](=O)(O)O)cc1` it is inactive: 7.88%. For the compound `O=C(O)c1ccccc1[As](=O)(O)O`, the inhibition was inactive: 4.05%.

On to `Cc1ccc(NP(=O)(Oc2ccccc2F)Oc2ccccc2F)nc1`, for which the inhibition is inactive: -24.5%. In the case of `Cc1cc(SC(NC(=O)c2ccc(F)cc2)C(Cl)(Cl)Cl)ncn1` (stereo unspecified), the inhibition is inactive: -17.5%. The figure for `CCOP(=O)(Nc1ccccc1)OCC` is inactive: -11.8% and inactive: 14.2%; for `Nc1cccc2ccc([As](=O)(O)O)cc12` it is inactive: -1.99%; for `CCN(N=Nc1nonc1N)c1nonc1N` it is inactive: -14.6%.

As to `O=C(Nc1cc([As](=O)(O)O)ccc1O)c1ccccc1`, the inhibition was inactive: -0.71%.

Turning to `O=[N+]([O-])c1ncn(CCn2ncnc2[N+](=O)[O-])n1`, the inhibition was inactive: 1.41%.

For `CC(C)(C)C(=O)NC(Sc1ccncn1)C(Cl)(Cl)Cl` (stereo unspecified), the inhibition was inactive: 17.2%. As for `O=C(O)CNc1ccc([As](=O)(O)O)cc1`, the inhibition is inactive: -1.57%. The figure for `O=[N+]([O-])c1cccc(NC2=NCC(CBr)S2)c1` (stereo unspecified) is inactive: -6.75%; for `COc1ccc(C2=NCC(CBr)S2)cc1` (stereo unspecified) it is inactive: 12.4%; for `CCc1nc2c(n1)c1c(non1O)c1c2no[n+]1[O-]` it is inactive: 11.8%. To `O=[N+]([O-])c1cc([N+](=O)[O-])c(CCNc2ccccc2)c([N+](=O)[O-])c1` belongs inactive: -1.93%. For the compound `Cc1ccc(NP(=O)(Oc2ccccc2)Oc2ccccc2)nc1`, the inhibition is inactive: -17.1%. The figure for `O=[N+]([O-])c1cccc2n[nH]nc12` is inactive: 1.5%; for `CC(=O)N1C2C3N(C(C)=O)C1C1N(C(C)=O)C(C(N1C(C)=O)N3C(C)=O)N2C(C)=O` it is inactive: 2.07%.

With `CCN(/C(=N/P(=O)(N1CCOCC1)N1CCOCC1)N1CCOCC1)c1ccc(OC)cc1`, the inhibition is inactive: -17.3%. To `C[N+]1=C2C=CC=CC=C2SC12C([N+](=O)[O-])=CC([N+](=O)[O-])=C[C-]2[N+](=O)[O-]` (stereo unspecified) belongs active: 43.9%; to `Nc1ccc([As](=O)(O)c2ccc(N)cc2)cc1`, inactive: -4.57%.

Regarding `CC1CCN(C(=O)Oc2c(Cl)cc(Cl)c3cccnc23)CC1`, the inhibition was inactive: -20.7%. Regarding `CN(C)C(=O)OCCc1n(C)cc[n+]1C`, the inhibition was inactive: -19.6%. With `CC(C)=N/N=C(\N)N[N+](=O)[O-]`, the inhibition was inactive: -6.43%.
